Measurements reported in article PMC10975434, “Cannabinoid-Induced Inhibition of Morphine Glucuronidation and the Potential for In Vivo Drug–Drug Interactions” (Pharmaceutics, 2024).
Residue numbers refer to the chain shown, from its start. “And” between values parts separate entries of the source, which are not always exact repeats. Equal entries are not always repeated.

What was measured:
UGT2B7 [1] = target: T1, UGT2B7 (Homo sapiens, UniProt P16662, Y268H); test: IC50 determination, morphine glucuronidation in rUGT2B7-overexpressing HEK293 cell microsomes
T1 sequence (P16662 24-529 Y268H): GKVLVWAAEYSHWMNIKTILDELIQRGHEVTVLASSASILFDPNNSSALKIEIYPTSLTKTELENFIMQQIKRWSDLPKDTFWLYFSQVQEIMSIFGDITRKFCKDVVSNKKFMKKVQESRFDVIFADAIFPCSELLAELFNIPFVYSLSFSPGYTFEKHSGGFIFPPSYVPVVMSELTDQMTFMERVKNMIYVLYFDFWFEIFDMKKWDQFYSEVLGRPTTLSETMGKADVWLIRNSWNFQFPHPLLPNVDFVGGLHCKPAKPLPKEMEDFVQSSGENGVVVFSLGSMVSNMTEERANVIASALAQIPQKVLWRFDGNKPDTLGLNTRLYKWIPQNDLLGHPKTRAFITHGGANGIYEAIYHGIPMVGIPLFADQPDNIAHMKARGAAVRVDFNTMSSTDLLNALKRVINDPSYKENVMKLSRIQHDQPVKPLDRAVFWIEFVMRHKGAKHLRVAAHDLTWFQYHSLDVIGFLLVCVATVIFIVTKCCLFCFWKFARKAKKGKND

UGT2B7 [2] = target: T2, UGT2B7 (Homo sapiens, UniProt P16662); test: in vitro; conditions: human liver microsomes, probe morphine 275 µM (morphine-3-glucuronide formation)
T2 sequence (P16662 24-529): T1 sequence (P16662 24-529 Y268H) with H245Y

UGT2B7 [3] = target: T1, UGT2B7; test: biochemical
UGT2B7 [4] = target: T2, UGT2B7; test: IC50 determination and calculated Ki, morphine glucuronidation in HLM; conditions: human liver microsomes, probe morphine 275 µM (morphine-3-glucuronide formation), Calculated Ki,u, Ki corrected with fu,inc

Compound: C=C(C)[C@@H]1CCC(C)=C[C@H]1c1c(O)cc(CCCCC)cc1O [CBD, cannabidiol, reference compound]
- IC50 (UGT2B7 [1]): 350 nM and 190 nM
- IC50 (UGT2B7 [2]): 8200 ± 4500 nM
- IC50 (UGT2B7 [3]): 9100 nM and 4900 nM
- Ki (UGT2B7 [4]): 210 ± 110 nM
